Measurements from US20240299275A1, “HYDROXY ACIDS FOR SCALP AND HAIR IN SULFATE FREE PERSONAL CARE COMPOSITIONS” (The Procter & Gamble Company, priority 2023, published 2024).
Where “and” joins values, the source holds several entries; their conditions need not be identical. Equal values may be shown once.

Experiment: Surfactant stability: change in lauric acid concentration of surfactant solutions after 65 C for 1 month vs baseline (HPLC/MS/MS)
Type: physicochemical
Conditions: 5.0% Cocamidopropyl Betaine + 5.0% anionic surfactant, 65 C 1 month
Protocol: Lowering the personal care composition's pH is a key driver of hydroxy acid delivery to the hair and the skin under the hair. However, lowering pH reduces the options of suitable anionic surfactants free-of sulfates as many are susceptible to hydrolysis. Therefore, surfactant stability is analyzed by measuring the change in lauric acid concentration of surfactant solutions after exposure to high temperature (65 C) for 1 month and at range of pH vs. baseline conditions (surfactant solutions as made at ambient temperature of about 25 C). As shown in the table below, the Taurate surfactants are less susceptible to degradation at lower pH and (rows 8-10, 17-21 and 30-33) vs. other common amino acid based anionic surfactants (Sarcosinate, Alaninate, Glutamate, Glycinate, and Isethionate).
Approximately 10 mg of each sample is weighed into a vial and 10 mL of isopropanol (IPA) added and mixed. An aliquot of the diluted sample (0.1 mL) is then transferred into an autosampler vial containing stable-isotope-labeled (D23 lauric acid) internal standard (ISTD) and diluent (85/15 IPA/water, 0.9 mL). A set of lauric acid standards is prepared over an appropriate calibration range in diluent and spiked with ISTD. The standards and samples are analyzed using gradient reversed-phase high performance liquid chromatography with tandem mass spectrometry (HPLC/MS/MS). Lauric acid and the ISTD are monitored by negative ion electrospray (ESI) using “pseudo” selected reaction monitoring (i.e., a precursor-to-precursor transition with no mass loss). A standard curve is constructed by plotting the peak area ratio (peak area lauric acid/peak area ISTD) for each standard versus lauric acid concentration. The amount of lauric acid in the calibration standards and diluted samples is back-calculated using the generated regression equation. The result is reported as the mass of lauric acid per g of sample (% Lauric Acid).

Delta % lauric acid/Anionic Surfactant Conc. (pH 5.2): 2.943% and 2.308% and 3.907% | Delta % lauric acid/Anionic Surfactant Conc. (pH 5.8): 2.527% | Delta % lauric acid/Anionic Surfactant Conc. (pH 6.5): 0.516%
Substance: Disodium cocoyl glutamate
